In assay [1] the target is T1, Phosphatidylinositol 4,5-bisphosphate 3-kinase catalytic subunit delta isoform (Homo sapiens, UniProt O00329).
T1 sequence (O00329 whole entry): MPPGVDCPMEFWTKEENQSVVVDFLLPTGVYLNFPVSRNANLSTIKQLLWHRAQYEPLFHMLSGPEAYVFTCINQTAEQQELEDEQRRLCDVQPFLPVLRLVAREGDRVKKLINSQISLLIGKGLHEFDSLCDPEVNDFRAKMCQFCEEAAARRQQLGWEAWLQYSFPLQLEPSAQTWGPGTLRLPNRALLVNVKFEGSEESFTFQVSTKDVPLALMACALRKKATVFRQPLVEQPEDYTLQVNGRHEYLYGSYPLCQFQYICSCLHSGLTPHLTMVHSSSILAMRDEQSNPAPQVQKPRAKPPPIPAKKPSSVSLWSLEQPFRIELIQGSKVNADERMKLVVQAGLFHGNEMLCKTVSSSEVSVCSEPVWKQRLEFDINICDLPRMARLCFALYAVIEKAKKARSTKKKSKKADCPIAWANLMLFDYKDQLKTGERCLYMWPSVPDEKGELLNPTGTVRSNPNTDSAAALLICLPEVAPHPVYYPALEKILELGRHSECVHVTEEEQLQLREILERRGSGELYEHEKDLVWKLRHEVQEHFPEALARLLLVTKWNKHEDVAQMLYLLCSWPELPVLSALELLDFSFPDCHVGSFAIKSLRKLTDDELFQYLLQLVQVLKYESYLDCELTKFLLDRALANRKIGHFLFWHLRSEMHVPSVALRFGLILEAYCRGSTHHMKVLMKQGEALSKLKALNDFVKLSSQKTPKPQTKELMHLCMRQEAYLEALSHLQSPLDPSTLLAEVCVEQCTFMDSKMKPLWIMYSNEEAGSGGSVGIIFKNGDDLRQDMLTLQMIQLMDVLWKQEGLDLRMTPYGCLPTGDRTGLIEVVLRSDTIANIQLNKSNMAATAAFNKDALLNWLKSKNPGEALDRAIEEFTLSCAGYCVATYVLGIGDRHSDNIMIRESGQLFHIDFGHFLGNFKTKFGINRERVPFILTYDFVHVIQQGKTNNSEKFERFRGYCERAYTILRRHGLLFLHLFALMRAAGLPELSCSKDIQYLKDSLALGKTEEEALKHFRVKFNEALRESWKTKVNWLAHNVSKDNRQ
Nature of the assay: Inhibition of PI3Kdelta in IgM stimulated human Raji cells incubated for 10 mins by AlphaLISA assay. The format is cell-based. A general note: In Alpha technology, singlet oxygen from a donor bead excites a nearby acceptor bead.

Assay [2] addresses T1, Phosphatidylinositol 4,5-bisphosphate 3-kinase catalytic subunit delta isoform. As to the kind of experiment: Inhibition of PI3Kdelta (unknown origin) using PIP2 as substrate measured after 1 hr in presence of ATP by ADP-glo luminescence assay.

We go through one compound from ChEMBL document CHEMBL5154925, “Design and Optimization of Thienopyrimidine Derivatives as Potent and Selective PI3Kδ Inhibitors for the Treatment of B-Cell Malignancies” (J Med Chem, 2022).

What is called IC50 is the concentration at which inhibition is half-maximal.

Regarding `CCC(=O)N1CC[C@H](Nc2ncnc3c2CN(c2cnc(OC)c(C(F)(F)F)c2)CC3)C1` [LENIOLISIB], the IC50 in assay [1] turned out to be 0.0628 µM; in assay [2], 0.0015 µM.
